Molecules are shown by their SMILES. This is a selection; strong and weak results do not stand in their true shares. Active and inactive are the calls of the source. No stated cut-off is given here; in the data, active means inhibition above about 25%; inactive means the rest.

Amino acid sequences for entries named in this document (tags omitted). A change or cut given only in a name is not applied to a line headed by its entry.
UniProt Q9ULH1: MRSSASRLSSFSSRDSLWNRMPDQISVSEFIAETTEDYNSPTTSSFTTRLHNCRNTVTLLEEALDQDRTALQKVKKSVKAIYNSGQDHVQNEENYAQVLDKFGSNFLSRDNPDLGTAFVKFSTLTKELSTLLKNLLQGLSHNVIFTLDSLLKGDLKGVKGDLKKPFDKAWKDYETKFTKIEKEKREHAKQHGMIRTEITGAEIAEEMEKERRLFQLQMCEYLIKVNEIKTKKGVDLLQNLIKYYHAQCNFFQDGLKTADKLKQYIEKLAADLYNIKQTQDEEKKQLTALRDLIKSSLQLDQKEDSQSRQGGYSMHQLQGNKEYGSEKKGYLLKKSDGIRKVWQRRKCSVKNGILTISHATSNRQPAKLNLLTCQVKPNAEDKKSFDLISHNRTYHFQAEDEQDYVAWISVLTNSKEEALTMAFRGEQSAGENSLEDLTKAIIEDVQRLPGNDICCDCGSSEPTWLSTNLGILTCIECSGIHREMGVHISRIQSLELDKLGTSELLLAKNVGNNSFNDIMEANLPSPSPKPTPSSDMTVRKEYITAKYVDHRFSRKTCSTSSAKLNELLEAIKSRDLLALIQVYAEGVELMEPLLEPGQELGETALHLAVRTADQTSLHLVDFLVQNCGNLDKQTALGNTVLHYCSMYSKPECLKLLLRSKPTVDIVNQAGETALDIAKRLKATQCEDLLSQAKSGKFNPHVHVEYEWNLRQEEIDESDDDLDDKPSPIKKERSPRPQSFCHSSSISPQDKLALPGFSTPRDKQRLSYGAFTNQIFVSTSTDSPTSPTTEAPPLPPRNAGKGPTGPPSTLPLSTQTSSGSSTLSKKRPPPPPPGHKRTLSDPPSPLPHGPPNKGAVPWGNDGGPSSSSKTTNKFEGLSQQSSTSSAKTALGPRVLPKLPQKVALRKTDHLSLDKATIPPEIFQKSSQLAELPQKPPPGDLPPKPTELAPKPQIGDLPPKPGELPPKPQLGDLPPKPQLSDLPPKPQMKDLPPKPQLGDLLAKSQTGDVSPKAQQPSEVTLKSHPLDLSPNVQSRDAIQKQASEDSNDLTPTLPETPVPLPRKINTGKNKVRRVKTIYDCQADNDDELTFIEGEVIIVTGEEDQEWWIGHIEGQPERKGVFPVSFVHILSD

This assay has as its target Arf-GAP with SH3 domain, ANK repeat and PH domain-containing protein 1 (Homo sapiens) (UniProt Q9ULH1). Put plainly: inhibitors of human ASAP1 ArfGAP activity, primary screen, biochemical, fluorescence polarization (AID 624377).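 Further: 0% = vehicle with enzyme and substrate and 100% = no enzyme.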 The conditions noted are these: ASAP1-stimulated ARF1 GTP hydrolysis, GDP FP detection; at 16.5 µM; hits give high values. Background: Polarisation of emitted light reports the rotation of a fluorescent probe.
In general, inhibition refers to the drop in the measured response relative to a control, in per cent. `O=C(O)COc1ccc([As](=O)(O)O)cc1[N+](=O)[O-]`: the inhibition is inactive: -0.19%.

For `Nc1ccccc1[As](=O)(O)c1ccccc1`, the inhibition is inactive: 6.41%.

On to `CCOP1(=S)c2c(C)nn(CCC#N)c2N=C(c2ccccc2F)N1C` (stereo unspecified), for which the inhibition was inactive: -1.93%.

Take `O=P(Nc1nccs1)(Oc1ccccc1)Oc1ccccc1`: the inhibition was inactive: -7.28%.

As for `O=[N+]([O-])c1ccc2c(c1)nnn2O`, the inhibition was inactive: 2.42%.

In the case of `CN(C)C(=O)c1cc([N+](=O)[O-])cc2c1-c1c(cc([N+](=O)[O-])cc1[N+](=O)[O-])C2=O`, the inhibition is inactive: -2.12%.

For `CN(C(=O)Cc1ccc(Cl)c(Cl)c1)[C@H]1CC[C@@]2(CCCO2)C[C@@H]1N1CCCC1`, the inhibition was inactive: 3.72%.

For `N#CCCN(C(=O)COC(=O)C(O)(c1ccccc1)c1ccccc1)c1ccc(F)cc1`, the inhibition is inactive: 7.81%.

As for `CN(C(=O)Cc1ccccc1)[C@@H]1CC[C@]2(CCCO2)C[C@H]1N1CCCC1`, the inhibition was inactive: -0.83%.

For the compound `CCOP1(=S)c2c(C)nn(CCC#N)c2N=C(c2ccc(F)cc2)N1C` (stereo unspecified), the inhibition was inactive: 0.02%.

In the case of `NC(=O)Nc1ccc([As](=O)(O)O)cc1`, the inhibition was inactive: 5.63%.

Turning to `Cc1cccc(OCC(=O)OC2CN3CCC2CC3)c1` (stereo unspecified), the inhibition is inactive: -10.3%.

Take `O=[As](O)(c1cccc(O)c1)c1cccc(O)c1`: the inhibition was inactive: -5.96%.

As for `O=[As](O)(O)c1cccnc1`, the inhibition was inactive: -5.89%.

In the case of `COc1cc(C(=O)NCC2(N3CCOCC3)CCCCC2)cc(Cl)c1OC(C)C`, the inhibition was inactive: -4.45%.

With `CS(=O)(=O)c1ccc(Cl)c(NC(=O)COC(=O)C(O)(c2ccccc2)c2ccccc2)c1`, the inhibition was inactive: 18.3%.

Consider `O=C(OC1CN2CCC1CC2)c1ccc(Cl)cc1` (stereo unspecified), for which the inhibition is inactive: -4.47%.

For `COc1cc(C2NCCC3(OCCO3)C2(C)C)cc(OC)c1OC` (stereo unspecified), the inhibition was inactive: -6.87%.

For the compound `CCOP(=O)(Nc1cccc2ccccc12)OCC`, the inhibition is inactive: 8.58%.

For `CCCOP(=S)(Nc1nc(N)cc(=O)[nH]1)OCCC`, the inhibition is inactive: 0.67%.

For the compound `Nc1cccc2c([As](=O)(O)O)cccc12`, the inhibition is inactive: -3.49%.

Consider `Cc1ccc(NCCc2c([N+](=O)[O-])cc([N+](=O)[O-])cc2[N+](=O)[O-])cc1`, for which the inhibition is inactive: -2.87%.

Regarding `Clc1n[nH]nc1-c1nn[nH][15n]1`, the inhibition is inactive: -5.31%.

For `O=P1(N(CCCl)CCCl)NCCC(C(F)(F)F)O1` (stereo unspecified), the inhibition was inactive: -2.79%.

As to `CC(C)(C)C(=O)NC(Sc1ncccn1)C(Cl)(Cl)Cl` (stereo unspecified), the inhibition is inactive: -6.58%.

For the compound `CCOP(=O)(Nc1ccc(C)cn1)OCC`, the inhibition was inactive: -15.5%.

On to `CN(CCCl)Cc1cc(Cl)c(NC2=NCCN2)c(Cl)c1`, for which the inhibition is inactive: -4.81%.

With `CCC1=CC2Cc3nc4ccc(Cl)cc4c(N)c3C(C1)C2` (stereo unspecified), the inhibition is inactive: 0.85%.

Take `O=P1(Nc2ccccn2)COc2ccccc2OC1`: the inhibition was inactive: -3.02%.

With `CCOP(=O)(NC(=NC(C)c1ccccc1)NC(C)c1ccccc1)OCC` (stereo unspecified), the inhibition was inactive: -5.55%.

On to `CC1(CBr)Cn2c(nc3ccccc3c2=O)S1` (stereo unspecified), for which the inhibition was inactive: -4.77%.

`CN(C(=O)Cc1ccc(Cl)c(Cl)c1)[C@@H]1CCCC[C@H]1N1CCCC1`: the inhibition was inactive: 9.56%.

`CC(C)/C=N\N=C(\N)N[N+](=O)[O-]`: the inhibition is inactive: -0.4%.

In the case of `CN(C(=O)Cc1ccc(Cl)c(Cl)c1)C1CCCC[C@@H]1N1CCCC1` (stereo partly specified), the inhibition was inactive: 5.36%.

As to `COc1ccccc1CNC(=O)COC(=O)C(O)(c1ccccc1)c1ccccc1`, the inhibition is inactive: 13.2%.

In the case of `O=C(/C=C/c1ccccc1)OC1CN2CCC1CC2` (stereo unspecified), the inhibition is inactive: 2.46%.

In the case of `CCCC1OP(=O)(Nc2ccccc2)OCC1CC` (stereo unspecified), the inhibition was inactive: -0.11%.

Regarding `CN(C)C1(CNC(=O)c2ccc(S(C)(=O)=O)cc2)CCCCC1`, the inhibition was inactive: -3.05%.

As for `Cc1nn(-c2ccccc2)c2c1P(=O)(N1CCOCC1)N(C)C(c1ccccc1)=N2` (stereo unspecified), the inhibition is inactive: 0.7%.

For the compound `Cc1ccc(C(=O)OC2CN3CCC2CC3)cc1` (stereo unspecified), the inhibition was inactive: -7.36%.

Consider `CC1CCC(C(C)C)C(OP(=O)(Nc2ccccn2)c2ccccc2)C1` (stereo unspecified), for which the inhibition is inactive: 15.7%.

As for `O=[As](O)(c1cccs1)c1cccs1`, the inhibition was inactive: -10.9%.

Consider `Cc1ccc(OCC(=O)OC2CN3CCC2CC3)cc1` (stereo unspecified), for which the inhibition was inactive: -13%.

With `NS(=O)(=O)c1cccc(NC(=O)COC(=O)C(O)(c2ccccc2)c2ccccc2)c1`, the inhibition is inactive: 2.26%.

Consider `O=P1(Nc2ccc(Br)cn2)COc2ccccc2OC1`, for which the inhibition is inactive: 6.34%.

As to `Nc1cccc([As](=O)(O)c2ccccc2)c1`, the inhibition was inactive: -9.93%.

As for `O=P1(Nc2ncccn2)COc2ccccc2OC1`, the inhibition is inactive: -9.31%.

For the compound `Cc1ccc(S(=O)(=O)N(CCCN)CCCc2c(C)nc(N)[nH]c2=O)cc1`, the inhibition is inactive: 15.7%.

As to `CCCCOc1ccc(C(=O)NCC2(N3CCCCC3)CCCCC2)cc1OC`, the inhibition is inactive: 0.02%.

Take `Cc1cc(SC(NC(=O)c2ccccc2)C(Cl)(Cl)Cl)nc(C(C)C)n1` (stereo unspecified): the inhibition was inactive: 2.22%.

With `COP(=O)(OC)N1CC1c1ccccc1` (stereo unspecified), the inhibition is inactive: -2.03%.

With `CC1CCNP(=O)(N(CCCl)CCCl)O1` (stereo unspecified), the inhibition was inactive: -13.6%.

On to `O=C(O)C(O)c1ccc(N(CCCl)CCCl)cc1` (stereo unspecified), for which the inhibition was inactive: 13.9%.

Consider `CCOC(=O)Nc1ccc([As](=O)(O)O)c(O)c1`, for which the inhibition was inactive: -11.1%.

Regarding `O=[N+]([O-])c1ccc(Nc2ccc(Oc3ccc([N+](=O)[O-])cc3[N+](=O)[O-])cc2)c([N+](=O)[O-])c1`, the inhibition is inactive: -17.4%.

Regarding `Cc1cc(SC(NC=O)C(Cl)(Cl)Cl)ncn1` (stereo unspecified), the inhibition was inactive: -17.9%.

On to `O=P(Nc1ccccn1)(c1cccc2ccccc12)c1cccc2ccccc12`, for which the inhibition was inactive: -1.41%.

As for `CCOC(=O)Nc1cccc([As](=O)(O)O)c1`, the inhibition was inactive: 3.57%.

Turning to `O=C(COc1ccccc1)OC1CN2CCC1CC2` (stereo unspecified), the inhibition is inactive: 0.06%.

As for `O=C(Nc1ccncc1[N+](=O)[O-])c1ccc([N+](=O)[O-])cc1[N+](=O)[O-]`, the inhibition was inactive: -1.72%.

Consider `O=C(O)C(=O)c1ccc(N(CCCl)CCCl)cc1`, for which the inhibition is inactive: 9.48%.

With `COP1(=S)c2c(C)nn(CCC#N)c2N=C(c2ccc(F)cc2)N1C` (stereo unspecified), the inhibition is inactive: -1.93%.

Turning to `COC(=O)C1(C)COP(=O)(N2CCCC2)OC1` (stereo unspecified), the inhibition is inactive: 2.27%.

With `CCC(C)N(CC(C)C)C(=S)SC(NC(C)=O)C(Cl)(Cl)Cl` (stereo unspecified), the inhibition is inactive: -0.9%.

Regarding `CCOC(=O)c1ccc(NC(=O)C(C)(CCl)SC)cc1` (stereo unspecified), the inhibition was inactive: -6.83%.

`O=C(OC1CN2CCC1CC2)c1cccc([N+](=O)[O-])c1` (stereo unspecified): the inhibition was inactive: -3.07%.

For `COc1ccc2nc(NP(=O)(c3ccccc3)c3ccccc3)sc2c1`, the inhibition is inactive: -13.8%.

`COc1cc(I)ccc1[As](=O)(O)O`: the inhibition is inactive: 6.64%.

As to `O=P1(N(CCCl)CCCl)Nc2ccccc2N1`, the inhibition was inactive: -13.1%.

In the case of `O=P1(N(CCCl)CCCl)OCCCN1CCCl` (stereo unspecified), the inhibition was inactive: -3.72%.

Consider `O=C(OC1CN2CCC1CC2)C12CC3CC(CC(C3)C1)C2` (stereo unspecified), for which the inhibition is inactive: 10.9%.

On to `Cc1cc(=O)[nH]c(N[N+](=O)[O-])n1`, for which the inhibition was inactive: -8.83%.

For `Cc1c2c(nc3ccccc13)SC(C(Cl)Cl)C2` (stereo unspecified), the inhibition was inactive: -5.38%.

Turning to `COc1ccc(N/C(=N/P(=O)(N2CCOCC2)N2CCOCC2)N2CCOCC2)cc1`, the inhibition is inactive: 8.57%.

For `O=[N+]([O-])c1cc(Oc2ccc([N+](=O)[O-])cc2C(F)(F)F)cc([N+](=O)[O-])c1`, the inhibition was inactive: -0.91%.

With `Cc1ccc2nc3c(c(C)c2c1)CC(C(Cl)Cl)S3` (stereo unspecified), the inhibition was inactive: -10.8%.

For `Cc1ccc(OP(=O)(Nc2ccc([N+](=O)[O-])cn2)Oc2ccc(C)cc2)cc1`, the inhibition is inactive: -1.79%.

With `[N-]=[N+]=NC1CCCCC1NC(=O)c1cc([N+](=O)[O-])cc([N+](=O)[O-])c1` (stereo unspecified), the inhibition was inactive: -1.06%.

Take `O=[As](O)(c1ccc(O)cc1)c1ccccc1O`: the inhibition was inactive: 10.4%.

As to `C[As](=O)(O)c1cccc(C(=O)O)c1`, the inhibition was inactive: 4.77%.

Turning to `O=[N+]([O-])c1ccc(-c2cc([N+](=O)[O-])c(O)c([N+](=O)[O-])c2)cc1`, the inhibition was inactive: -1.84%.

`COc1cc(C(=O)NCC2(N3CCOCC3)CCCCC2)ccc1OCC(C)C`: the inhibition is inactive: -9.65%.

For `CC(C)NC(=O)NP(=O)(Oc1ccccc1)Oc1ccccc1`, the inhibition is inactive: -6.9%.

For the compound `O=C(OC1CN2CCC1CC2)c1cccc2[nH]cnc12` (stereo unspecified), the inhibition was inactive: 0.11%.

As for `CCN(CC)C(=S)SC(NC=O)C(Cl)(Cl)Cl` (stereo unspecified), the inhibition was inactive: -10.2%.

In the case of `COC(=O)C1(C)COP(=O)(N2CCCCCC2)OC1` (stereo unspecified), the inhibition was inactive: 4.46%.

As for `CC(C)c1ccc(OP(=O)(Nc2ccccn2)Oc2ccccc2F)cc1` (stereo unspecified), the inhibition is inactive: -2.48%.

`ClCCSc1nnc(-c2cccnc2)o1`: the inhibition is inactive: 1.95%.

On to `Cc1cc(SC(NC(=O)c2ccc(F)cc2)C(Cl)(Cl)Cl)ncn1` (stereo unspecified), for which the inhibition is inactive: -11.2%.

In the case of `CCOP(=O)(Nc1ccccc1)OCC`, the inhibition was inactive: -3.33%.

As for `CN(C(=O)Cc1ccc(Cl)c(Cl)c1)[C@H]1CCCC[C@@H]1N1CCCC1`, the inhibition is inactive: -11.2%.

In the case of `Cc1ccc(NP(=O)(Oc2ccccc2F)Oc2ccccc2F)nc1`, the inhibition was inactive: -2.4%.

For the compound `CCn1c(=O)n(C2CCN(CC3CCCCCCC3)C[C@H]2CO)c2ccccc21` (stereo partly specified), the inhibition was inactive: -12%.

Regarding `CC(=O)Nc1ccc([As](=O)(O)O)cc1`, the inhibition was inactive: -6.63%.

In the case of `O=C(O)c1ccccc1[As](=O)(O)O`, the inhibition was inactive: -3.48%.

Turning to `CCCC1OP(N)(=O)OCC1CC` (stereo unspecified), the inhibition is inactive: 1.71%.

As to `O=P(Nc1nc2ccc(Cl)cc2s1)(c1ccccc1)c1ccccc1`, the inhibition was inactive: 7.74%.

Turning to `CN(C)P(=O)(N(C)C)n1c(Nc2ccccc2)nnc1-c1ccccc1`, the inhibition is inactive: -4.23%.

As for `CN(C(=O)Cc1ccccc1)C1CC[C@@]2(CCCO2)C[C@@H]1N1CCCC1` (stereo partly specified), the inhibition was inactive: 9.07%.

Consider `CCN(N=Nc1nonc1N)c1nonc1N`, for which the inhibition is inactive: -18.4%.

Turning to `Nc1cccc2ccc([As](=O)(O)O)cc12`, the inhibition was inactive: -1.25%.

(Values after PubChem BioAssay AID624377 (The Scripps Research Institute Molecular Screening Center, 2012).)
